Among the data in patent US20240358702A1, “CYCLIC UREA KRAS INHIBITORS” (INCYTE CORPORATION, priority 2023, published 2024) are G12D_exchange and IC50 values, retold here.

Amino acid sequences for entries named in this document (tags omitted). Residues count along the entry.
UniProt P01116, 1-188 isoform 2 G12D: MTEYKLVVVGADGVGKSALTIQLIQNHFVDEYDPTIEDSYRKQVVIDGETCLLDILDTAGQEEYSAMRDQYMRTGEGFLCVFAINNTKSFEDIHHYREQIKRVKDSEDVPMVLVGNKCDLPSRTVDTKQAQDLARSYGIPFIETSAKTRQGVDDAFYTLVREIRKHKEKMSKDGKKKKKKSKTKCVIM
UniProt P01116, 1-188 isoform 2 G12V: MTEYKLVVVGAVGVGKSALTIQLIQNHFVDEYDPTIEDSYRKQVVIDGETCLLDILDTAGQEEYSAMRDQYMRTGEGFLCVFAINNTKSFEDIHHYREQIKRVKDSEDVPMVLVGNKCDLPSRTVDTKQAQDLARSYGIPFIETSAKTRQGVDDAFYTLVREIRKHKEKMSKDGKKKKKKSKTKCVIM

In one assay the target is KRAS G12D (Homo sapiens, UniProt P01116, G12D). Put plainly: GDP-GTP exchange assay (bodipy-GDP/GppNHp, SOS1), KRAS G12D. Particulars: KRAS_G12D exchange assay IC50; 4 h pre-incubation; value for the most potent isomer quoted. The method, then:
(§1) The inhibitor potency of the exemplified compounds was determined in a fluorescence based guanine nucleotide exchange assay, which measures the exchange of bodipy-GDP (fluorescently labeled GDP) for GppNHp (Non-hydrolyzable GTP analog) to generate the active state of KRAS in the presence of SOS1 (guanine nucleotide exchange factor). Inhibitors were serially diluted in DMSO and a volume of 0.1 μL was transferred to the wells of a black low volume 384-well plate. 5 μL/well volume of bodipy-loaded KRAS G12D diluted to […] in assay buffer (25 mM Hepes pH 7.5, 50 mM NaCl, 10 mM mgCl2 and 0.01% Brij-35) was added to the plate and pre-incubated with inhibitor for 4 h at ambient temperature. Appropriate controls (enzyme with no inhibitor or with a G12D inhibitor) were included on the plate. The exchange was initiated by the addition of a 5 μL/well volume containing 1 mM GppNHp and 300 nM SOS1 in assay buffer. The 10 μL/well reaction concentration of the bodipy-loaded KRAS G12D, GppNHp, and SOS1 were 2.5 nM, 500 uM, and 150 nM, respectively. The reaction plates were incubated at ambient temperature for 2 h, a time estimated for complete GDP-GTP exchange in the absence of inhibitor. […] Fluorescence intensities were measured on a PheraStar plate reader instrument (BMG Labtech) with excitation at 485 nm and emission at 520 nm. […]

A further assay has as its target KRAS G12V (Homo sapiens, UniProt P01116, G12V). Put plainly: GDP-GTP exchange assay (bodipy-GDP/GppNHp, SOS1), KRAS G12V. The note with it: read-out: G12V_exchange; KRAS_G12V exchange assay IC50; value for the most potent isomer quoted. The method, then:
as §1

As for `COc1ncccc1N1CCCN([C@H](C)c2cc3c(C)nc4c(F)c(-c5cccc(Cl)c5Cl)c(CCC#N)cc4c3n2[C@H]2[C@H]3CN[C@@H]2C3)C1=O`, the G12D_exchange entry on KRAS G12D is listed as “†”. Also, the IC50 at KRAS G12V is 100 to 1000 nM.
